Source: PMC4105438, “Novel Benzoxazine-Based Aglycones Block Glucose Uptake In Vivo by Inhibiting Glycosidases” (PLoS ONE, 2014)

Protein sequences, listed by entry. Tags and fused reporters are not part of them. Lines headed by an entry give the natural chain unless they say otherwise; changes in a name come on top.
UniProt P23739: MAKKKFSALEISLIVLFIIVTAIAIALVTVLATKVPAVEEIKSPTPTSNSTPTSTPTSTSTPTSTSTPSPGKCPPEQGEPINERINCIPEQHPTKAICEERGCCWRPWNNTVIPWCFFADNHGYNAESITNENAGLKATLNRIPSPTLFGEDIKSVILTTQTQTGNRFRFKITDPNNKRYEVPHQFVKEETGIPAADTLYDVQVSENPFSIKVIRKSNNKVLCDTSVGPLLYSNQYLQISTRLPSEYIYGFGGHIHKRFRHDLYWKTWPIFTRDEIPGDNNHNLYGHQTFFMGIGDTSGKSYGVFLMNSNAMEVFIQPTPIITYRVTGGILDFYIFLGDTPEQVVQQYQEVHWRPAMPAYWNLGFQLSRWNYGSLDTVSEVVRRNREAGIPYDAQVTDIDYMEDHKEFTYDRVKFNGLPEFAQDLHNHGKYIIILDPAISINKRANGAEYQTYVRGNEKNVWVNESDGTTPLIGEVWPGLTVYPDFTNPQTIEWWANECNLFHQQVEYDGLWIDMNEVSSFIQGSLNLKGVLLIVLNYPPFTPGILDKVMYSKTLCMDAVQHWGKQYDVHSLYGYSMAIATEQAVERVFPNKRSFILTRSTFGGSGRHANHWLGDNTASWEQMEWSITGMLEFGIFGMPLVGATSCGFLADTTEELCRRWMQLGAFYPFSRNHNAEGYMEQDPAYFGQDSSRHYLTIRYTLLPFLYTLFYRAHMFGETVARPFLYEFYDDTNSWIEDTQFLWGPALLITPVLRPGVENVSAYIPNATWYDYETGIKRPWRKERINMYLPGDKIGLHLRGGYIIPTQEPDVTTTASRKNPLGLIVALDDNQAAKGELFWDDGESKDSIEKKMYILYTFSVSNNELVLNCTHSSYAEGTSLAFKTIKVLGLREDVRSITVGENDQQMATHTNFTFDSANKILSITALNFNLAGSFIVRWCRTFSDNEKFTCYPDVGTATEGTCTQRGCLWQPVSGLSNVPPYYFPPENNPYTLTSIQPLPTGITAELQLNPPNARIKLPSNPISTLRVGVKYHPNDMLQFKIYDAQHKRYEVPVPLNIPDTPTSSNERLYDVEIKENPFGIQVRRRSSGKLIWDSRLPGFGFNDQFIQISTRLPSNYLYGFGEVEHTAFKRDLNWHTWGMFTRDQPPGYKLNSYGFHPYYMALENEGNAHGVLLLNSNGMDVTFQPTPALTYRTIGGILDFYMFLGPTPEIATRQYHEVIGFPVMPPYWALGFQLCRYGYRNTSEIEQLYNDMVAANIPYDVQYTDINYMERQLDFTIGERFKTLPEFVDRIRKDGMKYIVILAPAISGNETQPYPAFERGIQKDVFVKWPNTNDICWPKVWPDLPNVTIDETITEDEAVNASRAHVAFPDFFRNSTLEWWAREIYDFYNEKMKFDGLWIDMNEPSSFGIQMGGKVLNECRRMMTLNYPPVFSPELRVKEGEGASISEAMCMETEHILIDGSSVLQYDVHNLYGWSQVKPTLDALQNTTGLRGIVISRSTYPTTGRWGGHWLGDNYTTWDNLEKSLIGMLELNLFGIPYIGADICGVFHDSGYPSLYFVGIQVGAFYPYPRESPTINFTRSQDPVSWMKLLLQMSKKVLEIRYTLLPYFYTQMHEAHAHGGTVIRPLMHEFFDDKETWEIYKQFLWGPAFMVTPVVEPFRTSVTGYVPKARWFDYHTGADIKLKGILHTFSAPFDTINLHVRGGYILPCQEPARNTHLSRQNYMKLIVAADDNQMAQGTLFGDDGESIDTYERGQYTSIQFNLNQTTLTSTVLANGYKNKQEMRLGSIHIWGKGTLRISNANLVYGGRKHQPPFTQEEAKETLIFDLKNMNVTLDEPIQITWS

Target: T1, rat intestinal sucrase (Rattus norvegicus, UniProt P23739)
T1 construct: the supernatant obtained was used as enzyme source; tissue Sigma Aldrich, St. Louis (USA); host or cells: rat intestinal acetone powder (supernatant of the saline homogenate)
Experiment: Intestinal α-glucosidase inhibitory assay, sucrose as substrate
Type: biochemical
Settings: rat intestinal acetone powder, sucrose 56 mM, 60 min
Experimental: Intestinal α-glucosidase activity was determined by measuring the amount of glucose hydrolyzed from maltose or sucrose. Briefly, rat intestinal acetone powder was homogenized in 0.9% saline and the suspension was centrifuged at 10,000 g for 30 min at 4°C and the supernatant obtained was used as enzyme source. […] After the respective incubation period, reaction was terminated by keeping the samples in boiling water bath for 10 min. The concentration of glucose released from the reaction mixtures was determined by using Glucose oxidase (GOD POD) kit according to the manufacturer’s protocol. Results were expressed as percentage inhibition of intestinal maltase/sucrase activity.

- IC50: 4 µM
Compound: C[C@H]1O[C@H](O[C@H]2[C@H](O)[C@@H](O)[C@@H](O[C@H]3[C@H](O)[C@@H](O)C(O)O[C@@H]3CO)O[C@@H]2CO)[C@H](O)[C@@H](O)[C@@H]1N[C@H]1C=C(CO)[C@@H](O)[C@H](O)[C@H]1O (stereo partly shown) [Acarbose, reference compound]
